Reference: EP4831172A1, “A CLASS OF POLYCYCLIC COMPOUNDS AND USES THEREOF” (dated 2026)
Values belong to the molecule of their own block, whether it stands above or below them.

Protein sequences, listed by entry. Tags and fused reporters are not part of them. Residues count along the entry.
UniProt P43220, 24-463 limits assumed: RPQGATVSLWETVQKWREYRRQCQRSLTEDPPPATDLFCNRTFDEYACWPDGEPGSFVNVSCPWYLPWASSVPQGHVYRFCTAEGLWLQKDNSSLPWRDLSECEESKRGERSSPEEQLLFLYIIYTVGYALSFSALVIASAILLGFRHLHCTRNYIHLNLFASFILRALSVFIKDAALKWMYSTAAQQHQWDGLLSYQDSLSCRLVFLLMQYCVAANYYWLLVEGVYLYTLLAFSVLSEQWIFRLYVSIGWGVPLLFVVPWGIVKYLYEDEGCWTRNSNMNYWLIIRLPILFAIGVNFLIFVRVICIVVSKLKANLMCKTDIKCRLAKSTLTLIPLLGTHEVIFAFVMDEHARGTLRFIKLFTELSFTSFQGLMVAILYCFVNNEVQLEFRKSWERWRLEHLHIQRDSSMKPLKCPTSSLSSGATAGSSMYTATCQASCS
UniProt P41595, whole entry: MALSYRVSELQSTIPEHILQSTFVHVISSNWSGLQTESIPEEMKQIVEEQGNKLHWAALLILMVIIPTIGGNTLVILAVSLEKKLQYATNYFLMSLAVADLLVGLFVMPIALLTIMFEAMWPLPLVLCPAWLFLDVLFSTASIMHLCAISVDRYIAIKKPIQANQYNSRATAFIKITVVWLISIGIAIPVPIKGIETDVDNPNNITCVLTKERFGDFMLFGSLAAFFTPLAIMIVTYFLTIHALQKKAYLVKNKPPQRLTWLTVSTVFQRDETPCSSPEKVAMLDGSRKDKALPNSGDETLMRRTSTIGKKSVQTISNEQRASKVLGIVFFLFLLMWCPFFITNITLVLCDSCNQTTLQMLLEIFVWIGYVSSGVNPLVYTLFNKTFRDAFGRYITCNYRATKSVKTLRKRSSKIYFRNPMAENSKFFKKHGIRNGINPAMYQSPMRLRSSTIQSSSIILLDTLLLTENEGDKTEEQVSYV
UniProt Q13936, whole entry: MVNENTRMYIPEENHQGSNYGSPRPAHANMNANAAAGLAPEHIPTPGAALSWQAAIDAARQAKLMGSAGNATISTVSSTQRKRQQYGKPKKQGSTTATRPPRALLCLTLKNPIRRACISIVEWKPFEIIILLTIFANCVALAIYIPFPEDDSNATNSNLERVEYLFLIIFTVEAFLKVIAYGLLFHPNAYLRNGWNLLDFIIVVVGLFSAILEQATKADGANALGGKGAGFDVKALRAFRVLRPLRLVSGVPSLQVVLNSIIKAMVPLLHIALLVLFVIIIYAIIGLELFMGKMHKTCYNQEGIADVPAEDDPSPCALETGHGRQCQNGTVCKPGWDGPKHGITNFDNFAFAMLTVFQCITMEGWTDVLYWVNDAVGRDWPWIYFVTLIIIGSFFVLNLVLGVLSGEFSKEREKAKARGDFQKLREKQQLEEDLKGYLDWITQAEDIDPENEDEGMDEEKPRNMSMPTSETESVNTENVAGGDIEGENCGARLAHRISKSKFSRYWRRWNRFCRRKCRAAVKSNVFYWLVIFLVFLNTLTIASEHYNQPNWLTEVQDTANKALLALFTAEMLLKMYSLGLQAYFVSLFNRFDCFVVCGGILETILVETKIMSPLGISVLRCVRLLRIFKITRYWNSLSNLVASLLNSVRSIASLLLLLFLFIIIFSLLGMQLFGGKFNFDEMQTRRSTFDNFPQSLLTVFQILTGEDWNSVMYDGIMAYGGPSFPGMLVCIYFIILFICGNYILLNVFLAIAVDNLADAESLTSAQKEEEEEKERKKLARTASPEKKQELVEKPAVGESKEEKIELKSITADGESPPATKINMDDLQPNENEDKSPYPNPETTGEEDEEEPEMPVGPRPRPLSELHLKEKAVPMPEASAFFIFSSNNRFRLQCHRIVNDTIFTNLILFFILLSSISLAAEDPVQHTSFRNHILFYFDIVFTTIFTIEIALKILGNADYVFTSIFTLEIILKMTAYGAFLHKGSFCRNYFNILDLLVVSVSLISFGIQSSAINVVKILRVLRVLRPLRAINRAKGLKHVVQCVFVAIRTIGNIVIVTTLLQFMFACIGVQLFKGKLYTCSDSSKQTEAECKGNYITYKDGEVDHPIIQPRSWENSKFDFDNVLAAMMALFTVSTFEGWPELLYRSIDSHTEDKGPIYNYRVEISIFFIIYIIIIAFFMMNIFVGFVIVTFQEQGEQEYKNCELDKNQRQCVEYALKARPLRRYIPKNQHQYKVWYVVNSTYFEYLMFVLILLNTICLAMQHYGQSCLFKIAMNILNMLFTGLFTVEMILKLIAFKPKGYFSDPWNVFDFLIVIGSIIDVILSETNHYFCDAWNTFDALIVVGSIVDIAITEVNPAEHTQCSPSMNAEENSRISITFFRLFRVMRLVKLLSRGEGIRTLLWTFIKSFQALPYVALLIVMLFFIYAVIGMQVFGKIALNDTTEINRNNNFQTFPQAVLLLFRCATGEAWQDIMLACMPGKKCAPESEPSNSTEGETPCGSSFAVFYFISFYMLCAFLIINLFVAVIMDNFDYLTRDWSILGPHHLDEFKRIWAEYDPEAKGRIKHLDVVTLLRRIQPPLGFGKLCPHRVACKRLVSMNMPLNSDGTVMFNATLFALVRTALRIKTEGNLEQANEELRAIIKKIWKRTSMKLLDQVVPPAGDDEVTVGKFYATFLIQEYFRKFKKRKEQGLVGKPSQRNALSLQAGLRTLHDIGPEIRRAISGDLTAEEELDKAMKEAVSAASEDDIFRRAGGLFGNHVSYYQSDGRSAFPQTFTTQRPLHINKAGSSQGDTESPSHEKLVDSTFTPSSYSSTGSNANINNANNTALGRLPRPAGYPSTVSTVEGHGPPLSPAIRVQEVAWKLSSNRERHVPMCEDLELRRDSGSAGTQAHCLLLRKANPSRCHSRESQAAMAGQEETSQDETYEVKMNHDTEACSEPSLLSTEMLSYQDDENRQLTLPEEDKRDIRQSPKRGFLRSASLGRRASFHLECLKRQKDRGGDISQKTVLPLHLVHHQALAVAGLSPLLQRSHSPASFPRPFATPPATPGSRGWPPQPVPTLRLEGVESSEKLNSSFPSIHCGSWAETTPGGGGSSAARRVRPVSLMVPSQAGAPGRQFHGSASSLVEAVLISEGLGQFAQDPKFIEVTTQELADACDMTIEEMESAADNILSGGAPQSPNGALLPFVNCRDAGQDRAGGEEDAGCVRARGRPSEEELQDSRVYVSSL
UniProt P41143, whole entry: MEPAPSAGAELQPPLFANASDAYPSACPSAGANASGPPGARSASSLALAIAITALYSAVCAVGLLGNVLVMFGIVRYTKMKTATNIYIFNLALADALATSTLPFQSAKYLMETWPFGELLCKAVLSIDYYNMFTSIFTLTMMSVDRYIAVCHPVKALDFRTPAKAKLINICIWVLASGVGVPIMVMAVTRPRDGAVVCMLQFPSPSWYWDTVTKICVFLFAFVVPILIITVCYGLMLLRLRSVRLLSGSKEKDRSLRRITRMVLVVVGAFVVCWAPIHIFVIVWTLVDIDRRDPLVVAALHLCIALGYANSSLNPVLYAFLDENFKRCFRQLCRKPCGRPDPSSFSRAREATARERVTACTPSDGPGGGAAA

Columns and labels:
[1] = molecular target: GLP-1R (Homo sapiens, UniProt P43220); assay: GLP1R-cAmp-Luc cell luciferase reporter assay of agonistic activity (titled in vitro enzymatic assay); settings: read-out: Agonistic activity (EC50: nM); GLP1R-cAmp-Luc cells, 4 h incubation
[2] = Weight-loss drug efficacy in DIO C57BL/6 hGLP1R mice; settings: 0.3 mg/kg i.g. qd
[3] = molecular target: 5HT2B (Homo sapiens, UniProt P41595); assay: Off-target safety panel, single target; settings: test concentration of 10 µM
[4] = molecular target: Ca^2+-L (Homo sapiens, UniProt Q13936); assay: Off-target safety panel, single target; settings: test concentration of 10 µM
[5] = molecular target: op-delta (Homo sapiens, UniProt P41143); assay: Off-target safety panel, single target; settings: test concentration of 10 µM
[6] = Intraperitoneal glucose tolerance test (IPGTT) in hGLP-1R transgenic mice
[7] = system: 44 targets; assay: Safety assessment of off-target effects on 44 targets (radioligand binding, calcium flux, enzyme assays); settings: any of the 44 targets
[8] = In vivo pharmacokinetic study in mice; settings: ICR mice
[9] = In vivo pharmacokinetic study in rats; settings: SD rats, oral (intragastric) 10 mg/kg
[10] = iv (2 mg/kg), detection results at 24 h
[11] = iv (2 mg/kg), detection results at 72 h
[12] = po (10 mg/kg), detection results at 24 h
[13] = po (10 mg/kg), detection results at 72 h

EC50 [1]: < 10 nM
SMILES: Cc1cc(-n2nc3c(c2-n2ccn(-c4cc(C)c5c(cnn5C5CC5)c4)c2=O)[C@H](C)N(C(=O)c2cc4cc([C@H]5CCOC(C)(C)C5)ccc4n2[C@@]2(c4noc(=O)[nH]4)C[C@@H]2C)CC3)cc(C)c1F

EC50 [1]: < 10 nM
SMILES: Cc1cc(-n2nc3c(c2NC(=O)N(C)c2ccc4c(cnn4C)c2)[C@H](C)N(C(=O)c2cc4cc([C@H]5CCOC(C)(C)C5)ccc4n2[C@@]2(c4noc(=O)[nH]4)C[C@@H]2C)CC3)cc(C)c1F

EC50 [1]: < 10 nM
SMILES: Cc1cc(-n2nc3c(c2-n2ccn(-c4ccc5c6n(nc5c4)CCCO6)c2=O)[C@H](C)N(C(=O)c2cc4cc([C@H]5CCOC(C)(C)C5)ccc4n2[C@@]2(c4noc(=O)[nH]4)C[C@@H]2C)CC3)cc(C)c1F

EC50 [1]: < 10 nM
SMILES: Cc1cc(-n2nc3c(c2-n2ccn(-c4ccc5c(cnn5C5CC5)c4C)c2=O)[C@H](C)N(C(=O)c2cc4cc([C@H]5CCOC(C)(C)C5)ccc4n2[C@@]2(c4noc(=O)[nH]4)C[C@@H]2C)CC3)cc(C)c1F

SMILES: Cc1cc(-n2nc3c(c2-n2ccn(-c4ccc5c(cnn5C)c4F)c2=O)[C@H](C)N(C(=O)c2cc4cc([C@H]5CCOC(C)(C)C5)ccc4n2[C@@]2(c4noc(=O)[nH]4)C[C@@H]2C)CC3)cc(C)c1F
average body weight gain rate ([2]; after 18 days of continuous administration): -15.1%
inhibition rate [3]: > 50%
inhibition rate [4]: > 50%
inhibition rate [5]: > 50%

EC50 [1]: < 10 nM
SMILES: Cc1cc(-n2nc3c(c2N(C)C(=O)Nc2ccc4c(cnn4C)c2)[C@H](C)N(C(=O)c2cc4cc([C@H]5CCOC(C)(C)C5)ccc4n2[C@@]2(c4noc(=O)[nH]4)C[C@@H]2C)CC3)cc(C)c1F

AUCinf [8, 10]: 19.736 µg·h/mL
Cl [8, 10]: 0.102 L/h/kg
T1/2 [8, 10]: 7.14 h
AUCinf [8, 11]: 21.599 µg·h/mL
Cl [8, 11]: 0.0927 L/h/kg
T1/2 [8, 11]: 10 h
AUCinf [8, 12]: 95.629 µg·h/mL
Cmax [8, 12]: 8.197 µg/mL
F [8, 12]: 96.9%
T1/2 [8, 12]: 7.77 h
Tmax [8, 12]: 1.67 h
AUCinf [8, 13]: 103.132 µg·h/mL
Cmax [8, 13]: 8.197 µg/mL
F [8, 13]: 95.5%
T1/2 [8, 13]: 9.56 h
Tmax [8, 13]: 1.67 h
EC50 [1]: < 10 nM
SMILES: Cc1cc(-n2nc3c(c2-n2ccn(-c4ccc5c(cnn5C5CC5)c4F)c2=O)[C@H](C)N(C(=O)c2cc4cc([C@H]5CCOC(C)(C)C5)ccc4n2[C@@]2(c4noc(=O)[nH]4)C[C@@H]2C)CC3)cc(C)c1F
average body weight gain rate ([2]; after 20 days of continuous administration): -20.3%
Mean blood glucose AUC ([6]; 0-120 min after i.p. glucose 2 g/kg, single i.g. dose 0.05 mg/kg given 60 min before, Mean ± SD): 949.6 ± 87.6 mmol·min/L
blood glucose levels after glucose loading ([6]; 0.05 mg/kg i.g., at 15 min, 30 min, 60 min and 120 min after glucose loading, versus Vehicle group): significantly lower than those in the Vehicle group
agonistic effect (agonism rate) ([7]; single concentration of 10 µM (Eta agonistic effect 12 µM)): < 50%
binding or inhibition effect (inhibition rate) ([7]; single concentration of 10 µM): < 50%

EC50 [1]: < 10 nM
SMILES: Cc1cc(-n2nc3c(c2NC(=O)Nc2ccc4c(cnn4C)c2F)[C@H](C)N(C(=O)c2cc4cc([C@H]5CCOC(C)(C)C5)ccc4n2[C@@]2(c4noc(=O)[nH]4)C[C@@H]2C)CC3)cc(C)c1F

EC50 [1]: < 10 nM
SMILES: Cc1cc(-n2nc3c(c2NC(=O)Nc2ccc4c(cnn4C)c2)[C@H](C)N(C(=O)c2cc4cc([C@H]5CCOC(C)(C)C5)ccc4n2[C@@]2(c4noc(=O)[nH]4)C[C@@H]2C)CC3)cc(C)c1F

EC50 [1]: < 10 nM
SMILES: Cc1cc(-n2nc3c(c2-n2ccn(-c4ccc5c(cnn5CC5CC5)c4F)c2=O)[C@H](C)N(C(=O)c2cc4cc([C@H]5CCOC(C)(C)C5)ccc4n2[C@@]2(c4noc(=O)[nH]4)C[C@@H]2C)CC3)cc(C)c1F

EC50 [1]: < 10 nM
SMILES: Cc1cc(-n2nc3c(c2-n2ccn(-c4ccc5nn6c(c5c4)OCCC6)c2=O)[C@H](C)N(C(=O)c2cc4cc([C@H]5CCOC(C)(C)C5)ccc4n2[C@@]2(c4noc(=O)[nH]4)C[C@@H]2C)CC3)cc(C)c1F

AUCinf [8, 10]: 7.706 µg·h/mL
AUCinf [8, 12]: 41.197 µg·h/mL
Cmax [8, 12]: 5.377 µg/mL
Tmax [8, 12]: 1.33 h
AUCinf [9]: 24.5 µg·h/mL
Cmax [9]: 2.947 µg/mL
T1/2 [9]: 3.86 h
Tmax [9]: 2.0 h
EC50 [1]: < 10 nM
SMILES: Cc1cc(-n2nc3c(c2-n2ccn(-c4cc5c6c(cnn6CCO5)c4)c2=O)[C@H](C)N(C(=O)c2cc4cc([C@H]5CCOC(C)(C)C5)ccc4n2[C@@]2(c4noc(=O)[nH]4)C[C@@H]2C)CC3)cc(C)c1F

AUCinf [8, 10]: 17.341 µg·h/mL
AUCinf [8, 12]: 85.04 µg·h/mL
Cmax [8, 12]: 7.807 µg/mL
F [8, 12]: 98.1%
Tmax [8, 12]: 1.67 h
AUCinf [9]: 31.48 µg·h/mL
Cmax [9]: 3.19 µg/mL
T1/2 [9]: 7.47 h
Tmax [9]: 3.33 h
EC50 [1]: < 10 nM
SMILES: Cc1cc(-n2nc3c(c2-n2ccn(-c4ccc5nn(CC6CC6)cc5c4F)c2=O)[C@H](C)N(C(=O)c2cc4cc([C@H]5CCOC(C)(C)C5)ccc4n2[C@@]2(c4noc(=O)[nH]4)C[C@@H]2C)CC3)cc(C)c1F
